Like-named read-outs stand apart in the source and are kept apart here.
Columns and labels:
[1] = test system: SLP76 phosphorylation in Jurkat cells; assay: Inhibition of SLP76 phosphorylation in Jurkat cells; settings: read-out: IC50 (inhibition of SLP76 phosphorylation), anti-CD3 antibody 10 μg/mL, tested form: TFA
[2] = In vitro metabolic stability in human liver microsomes; settings: 1 μM compound, 0.5 mg/mL protein, tested form: TFA
human HPK1 = human HPK1 (Homo sapiens (Human), UniProt Q92918); assay: Kinase activity assay using ADP-Glo method (Method 2); format: biochemical; settings: read-out: HPK1 IC50, ATP concentration 10 μM, tested form: TFA
MDR1-MDCK II cell line = assay: Permeability evaluation in MDR1-MDCK II cells; settings: tested form: TFA; for Efflux ratio / Permeability Papp A to B / Permeability Papp B to A: 2.00 μM, 150 minutes; for Conclusion of the permeability: class by Papp
[3] = Pharmacokinetic evaluation in mice; settings: tested form: TFA
[4] = HPK1 enzyme concentration 0.05 nM

By UniProt entry, the sequences of proteins in these tests, tags left out.
UniProt Q92918, whole entry: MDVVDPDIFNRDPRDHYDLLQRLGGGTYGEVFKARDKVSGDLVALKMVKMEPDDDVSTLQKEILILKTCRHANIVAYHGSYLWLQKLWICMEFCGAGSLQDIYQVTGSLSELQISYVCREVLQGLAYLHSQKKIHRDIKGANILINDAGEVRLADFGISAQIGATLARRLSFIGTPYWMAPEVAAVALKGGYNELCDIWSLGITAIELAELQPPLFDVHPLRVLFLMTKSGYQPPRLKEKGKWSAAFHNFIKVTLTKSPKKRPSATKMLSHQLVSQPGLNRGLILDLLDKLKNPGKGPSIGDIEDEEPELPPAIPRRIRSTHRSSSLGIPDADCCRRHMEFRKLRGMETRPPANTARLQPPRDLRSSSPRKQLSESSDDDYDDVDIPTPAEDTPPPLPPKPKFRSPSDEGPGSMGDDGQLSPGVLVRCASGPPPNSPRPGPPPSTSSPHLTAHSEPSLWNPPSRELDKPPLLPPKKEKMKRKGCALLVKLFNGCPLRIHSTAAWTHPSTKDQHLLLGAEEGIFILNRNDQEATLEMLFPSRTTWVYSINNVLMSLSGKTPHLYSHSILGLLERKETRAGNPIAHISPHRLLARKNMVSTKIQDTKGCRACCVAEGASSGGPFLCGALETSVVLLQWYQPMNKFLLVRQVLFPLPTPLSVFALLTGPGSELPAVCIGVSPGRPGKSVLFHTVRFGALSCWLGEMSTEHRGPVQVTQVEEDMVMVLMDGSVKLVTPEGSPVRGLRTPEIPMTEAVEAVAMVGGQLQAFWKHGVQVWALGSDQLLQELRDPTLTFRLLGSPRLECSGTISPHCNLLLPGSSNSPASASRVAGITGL

For `CN1Cc2nc(Nc3cnc(-c4cnc5cc(F)ccn45)c4c3C(=O)NC4)ccc2N2CCOCC2C1` (stereo not drawn), the IC50 [1] was 138 nM.
With `[2H]C([2H])([2H])n1ccc2c(-c3ncc(Nc4ccc5c(n4)OC[C@@H]4COCCN54)c4c3CNC4=O)ccnc21` the IC50 [1] was 268 nM, the “CLint(liver)” value [2] was 28 mL/min/kg and the T1/2 [2] was 44 min.
With `[2H]C([2H])([2H])n1ccc2c(-c3ncc(Nc4ccc5c(n4)CN(C)CC4COCCN54)c4c3CNC4=O)ccnc21` (single isomer, unassigned) [Trifluoroacetate of compound 54-2] the IC50 [1] was 116 nM, the “CLint(liver)” value [2] was 40 mL/min/kg and the T1/2 [2] was 32 min.
With `CN1Cc2nc(Nc3cnc(-c4ccnc5c4ccn5C)c4c3C(=O)NC4)ccc2N2CCOCC2C1` (single isomer, unassigned) [Trifluoroacetate of compound 24] the “CLint(liver)” value [2] was 58 mL/min/kg and the T1/2 [2] was 21 min.
With `[2H]C([2H])([2H])n1ccc2c(-c3ncc(Nc4ccc5c(n4)CN(C)CC4COCCN54)c4c3CNC4=O)ccnc21` (single isomer, unassigned) [Trifluoroacetate of compound 57] the IC50 (human HPK1; [4]) was 0.38 nM, the “CLint(liver)” value [2] was 49 mL/min/kg and the T1/2 [2] was 25 min.
In the case of `CCN1Cc2nc(Nc3ccc(-c4ccnc5c4ccn5C)c4c3C(=O)NC4)ccc2N2CCOCC2C1` (stereo not drawn), the IC50 (human HPK1; HPK1 enzyme concentration 0.3 nM) is reported as 0.3 nM.
With `O=C1NCc2c(-c3cnc4cc(F)ccn34)ccc(Nc3ccc4c(n3)OC[C@H]3COC[C@@H]43)c21` (relative stereo) the “CLint(liver)” value [2] was 54 mL/min/kg and the T1/2 [2] was 23 min.
For `CN1Cc2nc(Nc3cnc(-c4ccnc5c4ccn5C)c4c3C(=O)NC4)ccc2N2CCOCC2C1` (single isomer, unassigned) [Trifluoroacetate of compound 24-3], the IC50 [1] was 64 nM, the Efflux ratio (MDR1-MDCK II cell line) was 12.4 and the “Permeability Papp A to B” value (MDR1-MDCK II cell line) was 2.31 10^−6 cm/s. The “Permeability Papp B to A” value (MDR1-MDCK II cell line) was 28.60 10^−6 cm/s, the “Conclusion of the permeability” value (MDR1-MDCK II cell line) was “Medium (Medium permeability 1.0 < Papp < 5.5 (×10^−6 cm/s))” and the “CLint(liver)” value [2] was 58 mL/min/kg. The T1/2 [2] was 21 min, the AUC0-inf ([3]; IV 2 mg/kg) was 0.633 µM·h and the AUC0-last ([3]; IV 2 mg/kg) was 0.63 µM·h. It also gave a C0 ([3]; IV 2 mg/kg) of 2.23 µM, a Cl ([3]; IV 2 mg/kg) of 145 mL/min/kg and a T1/2 ([3]; IV 2 mg/kg) of 24 min. The Tlast ([3]; IV 2 mg/kg) was 4 h, the Vdss ([3]; IV 2 mg/kg) was 3.2 L/kg and the “F (%)” value ([3]; PO 75 mg/kg vs IV 2 mg/kg, calculated using AUC0-last) was 42%. For the same molecule, the AUC0-inf ([3]; PO 75 mg/kg) was 9.971 µM·h, the AUC0-last ([3]; PO 75 mg/kg) was 9.936 µM·h and the Cmax ([3]; PO 75 mg/kg) was 4.33 µM. The T1/2 ([3]; PO 75 mg/kg) was 54 min, the Tlast ([3]; PO 75 mg/kg) was 8 h and the Tmax ([3]; PO 75 mg/kg) was 60 min.
With `O=C1NCc2c(-c3cnc4cc(F)ccn34)ccc(Nc3ccc4c(n3)OC[C@@H]3COCC[C@H]43)c21` (relative stereo) the Efflux ratio (MDR1-MDCK II cell line) was 5.39, the “Permeability Papp A to B” value (MDR1-MDCK II cell line) was 3.35 10^−6 cm/s and the “Permeability Papp B to A” value (MDR1-MDCK II cell line) was 18.05 10^−6 cm/s. For the same molecule, the “Conclusion of the permeability” value (MDR1-MDCK II cell line) was “Medium (Medium permeability 1.0 < Papp < 5.5 (×10^−6 cm/s))”, the “CLint(liver)” value [2] was 64 mL/min/kg and the T1/2 [2] was 20 min.
In the case of `CN1Cc2nc(Nc3cnc(-c4ccnc5c4ccn5C)c4c3C(=O)NC4)ccc2N2CCOCC2C1` (single isomer, unassigned) [Trifluoroacetate of compound 40], the “CLint(liver)” value [2] is reported as 68 mL/min/kg and the T1/2 [2] is reported as 18 min.
With `[2H]C([2H])([2H])n1ccc2c(-c3ncc(Nc4ccc5c(n4)CN(C)CC4COCCN54)c4c3CNC4=O)ccnc21` (single isomer, unassigned) [Trifluoroacetate of compound 54] the IC50 (human HPK1; [4]) was 0.41 nM, the “CLint(liver)” value [2] was 66 mL/min/kg and the T1/2 [2] was 19 min.
Molecule `Cn1ccc2c(-c3ccc(Nc4ccc5c(n4)CNCC4COCCN54)c4c3CNC4=O)ccnc21` (stereo not drawn) has an IC50 [1] of 75 nM.
